Reference: publication PMC9852224

Biological target: BIM (UniProt O43521)
Assay: FLAG co-immunoprecipitation, immunoblot
Conditions: reference: WT-FLAG-MCL-1; sites T163

binding against the reference: lost
Substance: Mcl-1 (from UniProt Q07820) T163A-FLAG-MCL-1
